Source: paper PMC6182140, “p15^PAF binding to PCNA modulates the DNA sliding surface” (Nucleic Acids Research, 2018)

Legend:
pol η–PCNA holoenzyme [1] = assay: TLS by pol η on cis-Pt template in the presence of RF-C; format: biochemical, human; conditions: 50 µM dNTPs, 0.5 mM ATP, 150 nM ScRF-C, 400 nM pol η, 400 nM p15, 50 nM PCNA, 40 nM cis-Pt 18/24mer
Protocol: Recombinant ScRF-C was obtained as a kind gift from the laboratory of Alessandro Costa (Francis Crick Institute), and was prepared following the procedure described in ([34]).
All reactions were performed in a 10 μl final volume using the following conditions: 40 mM Tris pH 8, 1 mM dithiotreitol (DTT), 0.25 mg/ml bovine serum albumin (BSA), 10 mM Mg^2+ (unless otherwise stated in the figures or figure legends). Reactions were incubated at 37°C for 15 min, unless otherwise stated. Reaction mixtures were stopped by addition of standard denaturing gel loading buffer (95% formamide, […], xylene cyanol and bromophenol blue), heated at 95°C for 5 min and loaded on a 7-M urea 12% polyacrylamide (PA) gel.
Inhibition of pol h activity by PCNA-p15 in the presence of RF-C. Pol h was tested on the 18/24mer primer-template substrate bearing a cis-Pt adduct at the two guanines at positions +1 and +2 of the template strand, in the presence of RF-C and in the absence (lanes 10-13) or in the […]
presence of PCNA (lanes 6-9) or PCNA and p15 (lanes 2-5). Reactant concentrations were: 50 […]
corresponding to incorporation opposite the two G's of the cis-Pt adduct, and a delay in the appearance of longer products, particularly at short incubation times (compare lanes 2,3 with […]
across a cis-Pt lesion even in the presence of RF-C. […]

DNA = tested on: DNA; set-up: method as in PMID 25762514; conditions: biochemically measured; cited from earlier work
pol η–PCNA holoenzyme [2] = assay: DNA synthesis by pol η on undamaged template; format: biochemical, human; conditions: undamaged template 10 nM; pol η alone or with PCNA; 37°C, pH 8
Protocol: (§1) The 24-mer template oligonucleotide containing the cis-PtGG adduct was a kind gift from S.J. Sturla (ETH, Zürich) and was prepared and purified as described previously (Nilforoushan, 2015). All other DNA oligonucleotides, all HPLC purified, were synthesized by Biomers.net (Germany). The 18mer primer oligonucleotide was 5′-labeled with carboxyfluorescin (FAM) group. The labeled primer was mixed to the complementary template oligonucleotide at 1:1 (M/M) ratio in the presence of 150 mM Hepes–KOH pH 7.4, 500 mM KCl, 10 mM MgCl2, 250 mM NH4Ac, heated at 95°C for 5 min and then slowly cooled at room temperature.
(§2) pJM879 ([33]), expressing N-terminal His-tagged human pol η, was a kind gift from R. Woodgate (NIH, USA). Human recombinant pol η was expressed and purified with a modified protocol: BL21 DE3 competent E. coli cells were transformed with pJM879. Plates containing […] kanamycin were used to identify kanamycin-resistant colonies that were picked and grown overnight at 37°C. DNA purified from bacterial cultures using NucleoSpin® Plasmid (NoLid) kit ([…]-NAGEL, Düren, Germany) was digested to confirm the presence of the gene expressing pol η. Transformed E. coli cells were used to inoculate a 50 ml starter culture. After overnight growth at 37°C, 12 ml of the starter culture were put into 1 l of LB medium (containing […] kanamycin). […]

pol η–PCNA holoenzyme [3] = assay: TLS time course of pol η on cisPt(GG) template; format: biochemical, human; conditions: cisPt(GG) template 10 nM, pol η 40 nM; p15 with equimolar PCNA (p15), 10-fold excess PCNA (PCNA), or pol η alone; pH 8, 37°C
Protocol: as §1, §2

## PCNA: Human PCNA (UniProt: P12004), Proliferating Cell Nuclear Antigen, homotrimeric sliding clamp
Pol η–PCNA holoenzyme [1]
  effect on TLS in the presence of RF-C: did not significantly change the translesion synthesis products
DNA
  DNA binding affinity of PCNA alone: no DNA binding affinity can be biochemically measured
Pol η–PCNA holoenzyme [2]
  processivity: equal processivity
Pol η–PCNA holoenzyme [3]
  effect on lesion bypass / nucleotide incorporation: did not significantly affect pol η activity
